In this test the target is T1, Phosphatidylinositol 4,5-bisphosphate 3-kinase catalytic subunit delta isoform (Homo sapiens, UniProt O00329).
T1 sequence (O00329 whole entry): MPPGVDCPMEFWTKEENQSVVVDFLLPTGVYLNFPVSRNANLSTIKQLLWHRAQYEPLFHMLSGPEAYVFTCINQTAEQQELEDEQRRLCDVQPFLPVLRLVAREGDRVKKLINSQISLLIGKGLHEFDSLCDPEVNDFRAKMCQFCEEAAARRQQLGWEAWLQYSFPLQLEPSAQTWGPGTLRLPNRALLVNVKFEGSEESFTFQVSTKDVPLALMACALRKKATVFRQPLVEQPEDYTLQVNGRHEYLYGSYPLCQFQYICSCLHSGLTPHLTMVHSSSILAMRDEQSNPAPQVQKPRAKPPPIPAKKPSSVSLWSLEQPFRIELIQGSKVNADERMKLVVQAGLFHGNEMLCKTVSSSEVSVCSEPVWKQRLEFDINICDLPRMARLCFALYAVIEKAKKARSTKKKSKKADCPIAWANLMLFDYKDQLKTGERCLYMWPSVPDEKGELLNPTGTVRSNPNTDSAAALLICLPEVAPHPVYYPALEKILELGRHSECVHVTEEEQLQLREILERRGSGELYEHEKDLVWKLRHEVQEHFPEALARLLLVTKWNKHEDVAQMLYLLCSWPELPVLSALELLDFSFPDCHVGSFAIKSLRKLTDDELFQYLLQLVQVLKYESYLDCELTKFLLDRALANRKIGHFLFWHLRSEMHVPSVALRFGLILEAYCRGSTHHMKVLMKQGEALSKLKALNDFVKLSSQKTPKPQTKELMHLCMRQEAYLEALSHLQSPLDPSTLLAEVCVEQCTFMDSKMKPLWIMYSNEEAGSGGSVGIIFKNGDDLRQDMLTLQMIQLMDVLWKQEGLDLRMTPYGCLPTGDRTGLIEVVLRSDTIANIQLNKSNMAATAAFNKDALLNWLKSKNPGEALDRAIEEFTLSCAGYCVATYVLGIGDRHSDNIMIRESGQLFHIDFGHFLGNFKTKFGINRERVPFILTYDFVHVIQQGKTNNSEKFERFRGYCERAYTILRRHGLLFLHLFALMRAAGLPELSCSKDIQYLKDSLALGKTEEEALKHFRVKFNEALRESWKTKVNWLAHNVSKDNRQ
As to the kind of experiment: Inhibition of PI3Kdelta in human whole blood assessed as expression of CD69 in B cell preincubated for 1 hr by flow cytometry. Type of test: tissue-based.

Consider `CCc1nc2ccccc2n1-c1nc(N2CCOCC2)c2nc(OC3CN(C(=O)C(C)C)C3)n(C)c2n1`, for which the IC50 came out at 11.9 nM.

By IC50 is commonly meant the concentration at which inhibition is half-maximal.

The values above are taken from ChEMBL document CHEMBL2413047, “Identification of GNE-293, a potent and selective PI3Kδ inhibitor: navigating in vitro genotoxicity while improving potency and selectivity” (Bioorg Med Chem Lett, 2013).
